Assay outcomes deposited in PubChem by National Center for Advancing Translational Sciences (NCATS).
Rows were chosen to be rich in hits. Some 16% of all compounds tested hit in one or more screens of this group.
TDP1 cell noCPT: qHTS for Inhibitors of human tyrosyl-DNA phosphodiesterase 1 (TDP1): qHTS in cells in absence of CPT; DT40 Tdp1-/- hTDP1 cells, no CPT, ATP luminescence, 48 h; Potency, µM (doses to about 46.2 µM), inactives show top-dose activity change, negative = growth inhibition, most hits filed as inhibitors; 420,000 tested, 15% active; note: potency is the fitted concentration of half-maximal effect; % is set by controls: 0 for no effect and ±100 for the full control effect; nearly all actives have a fitted effect of over 55% in size
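Cells were dispensed at 400 per well, compounds added by pin tool, plates incubated ≥48 hr at 37 °C, then CellTiter-Glo added for 30 min at room temperature before luminescence reading. Line: DT40 Tdp1-/- complemented with hTDP1; camptothecin omitted.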
uPA generation: inhibitors of cell surface uPA generation | 330,000 tested, 0.31% active | cell surface uPA generation assay, qHTS | Potency, µM (doses to about 38.3 µM), for the others: at the highest dose activity change, negative = inhibition, most hits filed as inhibitors; active = well fitted inhibition curve with a large enough effect; inconclusive = small, poorly fitted or top-dose-only effect; inactive = no such curve, though single readings can be large or run the other way; tested in mouse RAW 264.7 cells; note: potency is the fitted concentration of half-maximal effect; % is set by controls: 0 for no effect and ±100 for the full control effect; nearly all actives have a fitted effect of over 55% in size
DT40 TDP1 CPT: growth inhibition of DT40 Tdp1-/-;hTDP1 cells with camptothecin (screen for TDP1 inhibitors); Potency, µM (titrated, usually from 46.2 µM), without a hit: at the highest dose activity change, negative = growth inhibition, usual class: inhibitors; 420,000 tested, 12% active; AID 686979; chicken DT40 Tdp1-/-;hTDP1 cells + 20 nM CPT, ATP luminescence, 48 h; note: potency is the fitted concentration of half-maximal effect; % is set by controls: 0 for no effect and ±100 for the full control effect; nearly all actives have a fitted effect of over 55% in size
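Cell growth measured by CellTiter-Glo luminescence after a minimum 48 h, 37 C compound exposure with 20 nM CPT in Tdp1-knockout DT40 cells stably expressing hTDP1, seeded 400/well; qHTS titration format.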
TDP1 block: inhibitors of human tyrosyl-DNA phosphodiesterase TDP1; Q9NUW8; recombinant TDP1, AlphaScreen DNA substrate cleavage; Potency, µM (highest dose often 130 µM), without a hit: at the highest dose activity change, negative = inhibition, actives largely listed as inhibitors; 350,000 tested, 0.28% active; note: potency is the fitted concentration of half-maximal effect; % is set by controls: 0 for no effect and ±100 for the full control effect; nearly all actives have a fitted effect of over 40% in size
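Signal: AlphaScreen proximity between streptavidin donor and anti-FITC acceptor beads on intact substrate. Reaction: Tdp1 1 nM, substrate 15 nM final, 5 min RT after 15 min compound preincubation.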
miR-21 reporter: raises the signal of a miR-21 reporter | Potency, µM (highest dose often 38.3 µM), without a hit: at the top dose reporter change, positive = more light | HeLa miR-21 FLuc reporter, luciferase, 48 h | 340,000 tested, under 10 active; active = well fitted rising curve with a large enough effect; inconclusive = small, poorly fitted or top-dose-only effect; inactive = no such curve, though single readings can be large or run the other way;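 further: % of control where 0% means no effect; miR-21 action dims this reporter so a rising signal means less miR-21 action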
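Compounds were titrated across several concentrations (up to approximately 40 uM) and incubated 48 hours with HeLa miR-21-FLuc reporter cells (miR-21 target sequence downstream of FLuc, endogenous miR-21). Readout was firefly luciferase luminescence after lytic detection reagent.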
Active calls of the source: *; ? = inconclusive; nt = no result given; [ ] = remark or other dose. Unless noted, calls come from the whole dose curve; as a rule, active = well fitted curve in the direction sought with a large enough effect; inconclusive = small, poorly fitted or top-dose-only effect, or another doubt; inactive = no such curve, though single readings can be large; an effect the other way counts as inactive or inconclusive.

Abbreviations – A = TDP1 cell noCPT; B = uPA generation; C = DT40 TDP1 CPT; D = TDP1 block; E = miR-21 reporter
SMILES: CC(=NCc1ccco1)c1c(O)n(-c2ccc(C)cc2)c(=O)[nH]c1=O
  A: 10.7%	B: 8.7%	C: -6.5%	D: 3.5%	E: 0.2%

SMILES: CCOC(=O)c1c(C)[nH]c(C)c1S(=O)(=O)NCC(=O)N1CCN(c2cc(Cl)ccc2C)CC1
  A: 18.4µM*	B: nt	C: 23.1µM*	D: 10.5%	E: 14.1%

SMILES: O=C1NC(=O)C(=Cc2ccc(-c3ccc(Cl)cc3)o2)C(=O)N1
  A: 8.2µM*	B: -6.0%	C: 5.8µM*	D: nt	E: 0.3%

SMILES: CN1C(=O)C(=Cc2ccc(Sc3ccccc3)o2)C(=O)N(C)C1=O
  A: ?	B: 1.8%	C: ?	D: -3.7%	E: -0.2%

SMILES: O=C1NC(=O)C(=Cc2ccc(Sc3ccccc3)o2)C(=O)N1
  A: 14.6µM*	B: 0.1%	C: ?	D: -9.8%	E: 11.5%

SMILES: CC(=O)C1(c2ccccc2)CCN(C(=O)C2CCC(=O)N(CCc3cccc(F)c3)C2)CC1 (stereo unspecified)
  A: 23.1µM*	B: -4.1%	C: -67.6%	D: 4.5%	E: 10.1%

SMILES: CC(C)c1ccc(N=Cc2c(O)n(C3CC3)c(=S)[nH]c2=O)cc1
  A: ?	B: 1.8%	C: -29.0%	D: nt	E: -1.6%

SMILES: NCc1cccnc1
  A: -11.1%	B: nt	C: 12.3%	D: 4.7%	E: nt

SMILES: CC(C)(c1ccc(OCC2CO2)cc1)c1ccc(OCC2CO2)cc1 (stereo unspecified)
  A: 6.51µM*	B: nt	C: 6.51µM*	D: -8.5%	E: nt

SMILES: c1ccc(OCC2CO2)cc1 (stereo unspecified)
  A: -0.5%	B: 11.3%	C: -11.1%	D: 1.2%	E: nt

SMILES: OCC12CO[C@@H]3c4ccccc4[C@H](OC1)N32 (stereo partly specified)
  A: 0.9%	B: -0.6%	C: -4.7%	D: 2.2%	E: -1.3%

SMILES: CN1c2ccc([N+](=O)[O-])cc2CC2(C(=O)NC(=O)N(c3ccc(Br)cc3)C2=O)C1c1ccccc1 (stereo unspecified)
  A: 18.4µM*	B: -0.4%	C: 18.4µM*	D: 6.9%	E: ?

SMILES: Cc1ccc2c(C)cccc2c1
  A: -3.8%	B: 17.9%	C: -6.5%	D: 9.9%	E: nt

SMILES: CN(C)C(CSC(N)=O)CSC(N)=O
  A: nt	B: nt	C: nt	D: 16.7%	E: nt

SMILES: CCN(CCCl)c1cc(CN(C)C)cc(NC(=O)c2ccc(C(=O)Nc3cc(CN(C)C)cc(N(CC)CCCl)c3)cc2)c1
  A: 0.184µM*	B: -9.3%	C: 0.184µM*	D: nt	E: nt

SMILES: CCN(CC)C(=O)c1ccc(NC(=O)c2cccc(C(F)(F)F)c2)cc1
  A: ?	B: -1.0%	C: -14.5%	D: 2.9%	E: -13.0%

SMILES: Cc1ccc(S(=O)(=O)c2nnn3c2nc(N2CCC(C(N)=O)CC2)c2cc(Cl)ccc23)cc1C
  A: 5.17µM*	B: nt	C: 20.6µM*	D: 3.9%	E: -11.8%

SMILES: CC(C(=O)N1CCC2(CC1)OCCO2)C1Sc2ccccc2NC1=O (stereo unspecified)
  A: -0.1%	B: -1.6%	C: -14.7%	D: 2.9%	E: -5.9%

SMILES: CCOc1ccc(-c2nc3cc(NC(=O)COc4cccc(C)c4)ccc3o2)cc1
  A: 16.4µM*	B: nt	C: 3.66µM*	D: 3.1%[12.3 µM]	E: 1.7%

SMILES: O=C1CC2OCC=C3CN4CC[C@@]56c7ccccc7N1C5C2C3CC46 (stereo partly specified)
  A: -11.9%	B: nt	C: nt	D: 9.0%[56.1 µM]	E: nt

In the list so far, these have fluorine.
Abbreviations – A = TDP1 cell noCPT; B = uPA generation; C = DT40 TDP1 CPT; D = TDP1 block; E = miR-21 reporter
SMILES: CC(=O)C1(c2ccccc2)CCN(C(=O)C2CCC(=O)N(CCc3cccc(F)c3)C2)CC1 (stereo unspecified)
  A: 23.1µM*	B: -4.1%	C: -67.6%	D: 4.5%	E: 10.1%

SMILES: CCN(CC)C(=O)c1ccc(NC(=O)c2cccc(C(F)(F)F)c2)cc1
  A: ?	B: -1.0%	C: -14.5%	D: 2.9%	E: -13.0%

(further entries)
Abbreviations – A = TDP1 cell noCPT; B = uPA generation; C = DT40 TDP1 CPT; D = TDP1 block; E = miR-21 reporter
SMILES: O=C(c1cccnc1)N1Cc2ccccc2-n2nncc2C1
  A: 6.8%	B: nt	C: -26.4%	D: nt	E: nt

SMILES: CC(C)(C)N1CC(C(=O)c2ccccc2)C1c1ccccc1 (stereo unspecified)
  A: -3.0%	B: -7.9%	C: -21.1%	D: nt	E: nt

SMILES: CCn1c(O)c(C=NCc2cccs2)c(=O)[nH]c1=O
  A: 29.1µM*	B: -4.7%	C: ?	D: -2.1%	E: 4.8%

SMILES: CC1CC(C)(O)CC(C(O)CC2CC(=O)NC(=O)C2)C1=O (stereo unspecified)
  A: 0.184µM*	B: -9.9%	C: 0.184µM*	D: nt	E: nt

SMILES: COC(=O)C1=C(c2ccc(F)cc2OCc2ccccc2)C[C@@H]2CC[C@H]1N2C(=O)NCc1ccccc1Br
  A: 16.4µM*	B: ?	C: ?	D: 1.1%	E: nt

SMILES: COC(=O)C1=C(c2ccc(F)cc2OCc2ccccc2)C[C@@H]2CC[C@H]1N2C(=O)NCCCc1ccccc1
  A: ?	B: ?	C: 25.9µM*	D: 0.0%	E: nt

SMILES: COC(=O)C1=C(c2ccc(F)cc2OCc2ccccc2)C[C@@H]2CC[C@H]1N2C(=O)NC1Cc2ccccc2C1
  A: 25.9µM*	B: ?	C: ?	D: 0.5%	E: nt

SMILES: Fc1ccc(-c2nc3c(-c4ccc(F)cc4)cnn3cc2CCN2CCOCC2)cc1
  A: ?	B: -0.9%	C: -17.8%	D: -2.7%	E: 1.7%
